Tested on: Ea.hy926 cells co-cultured with HLA-A2-reactive CAR T cells
Format: cell-based
Conditions: effector:target 2:1, 1:2 and 1:10, 18 hours
Protocol: The experiment was performed similar to previously described PBMC/Ea.hy926 co-culture experiments by replacing the effector with CAR-T cells. Ea.hy926 cells were engineered with polymers in UW solution as outlined. Cryopreserved CAR T cells were thawed using standard protocol41 and were pelleted and resuspended in phenol-free DMEM (5% FBS, pen/strep) at an effector (CAR-T cell) to target (Ea.hy926) ratios of 2:1, 1:2 and 1:10 (Vf=100 μL). After 18 hours, supernatants were removed from the wells and PBMCs were removed through centrifugation (300 g×5 minutes) and measured for LDH content to probe cell lysis using an LDH cytotoxicity assay (Biovision Inc.™). CAR-T cell-mediated cytotoxicity was calculated according to Eq. 2 replacing PBMC LDH release with CAR-T cell LDH release. LDH released by Ea.hy926 following 18 hour culture period that have not undergone polymer attachment and cultured in the absence of CAR-T cell is the 100% alive control and LDH released by Ea.hy926 following treatment with RIPA buffer for 10 minutes at ambient temperature is 100% dead control.

Substance: Linear polyglycerol sulfate glutamine [LPGS-Q]
- CAR-T cell induced endothelial cell cytotoxicity: performed similarly to non-sulfated counterparts

From patent US20250059499A1, “CELL-SURFACE ENGINEERING COMPOSITIONS AND METHODS FOR THE PREVENTION OF IMMUNE REJECTION” (THE UNIVERSITY OF BRITISH COLUMBIA, priority 2021, published 2025)
